# scFv variants of Ab-91 (heavy chain) against a SARS-CoV-2 spike peptide

Data: MIT Lincoln Laboratory AlphaSeq set, Engelhart et al. 2022, doi:10.1038/s41597-022-01779-4, as distributed in FLAb.

Target: peptide PDVDLGDISGINAS, taken from heptad repeat 2 (HR2) of SARS-CoV-2 spike.

Parent: Ab-91, a human scFv built as VL, three GGGGS repeats, VH. Only the CDRs of the heavy chain vary.
VL: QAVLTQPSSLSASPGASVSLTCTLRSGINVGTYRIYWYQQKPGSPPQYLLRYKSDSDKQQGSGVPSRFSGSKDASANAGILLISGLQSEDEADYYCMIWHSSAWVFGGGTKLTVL
VH: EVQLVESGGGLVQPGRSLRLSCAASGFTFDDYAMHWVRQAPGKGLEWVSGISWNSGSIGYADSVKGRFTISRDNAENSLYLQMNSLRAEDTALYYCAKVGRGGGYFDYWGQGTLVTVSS

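The starting antibody came from a phage panning campaign against this peptide. AAYL51 was designed without a model: most single CDR substitutions and a random sample of double and triple ones. The scFvs were displayed on barcoded MATa yeast, the peptide on MATalpha yeast. After mating in shaken culture at 30 °C for 16 h, diploids were selected and their barcode pairs sequenced. A regression on co-assayed BCL2-family reference pairs converts the normalised counts of each replicate to an apparent Kd. Mating was done three times.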

Each variant is given by its three heavy chain CDRs, as the data file delimits them; those of the parent are GFTFDDYAMH, GISWNSGSIGYADSVK, VGRGGGYFDY.
All variants listed here change V64 of the VH, counted from its first residue.
Kd is apparent (estimated from mating counts) and averaged on the log scale over replicates with a signal. Smaller is tighter.
An entry "nd" has no value in the source: the pair was not observed among the diploids in any replicate. This suggests poor binding but is not conclusive.

Variant GFTFFDYAMH / GISWNSGSIGGADSTK / VGRGGGYFDY gave nd (0 of 3 replicates). Variant GFTFDDYAMH / GISWNSGSIGYADSNK / VGRGCCYFDY gave 84 µM (3 of 3 replicates). Variant GFTFDDYAMH / GISWNSGSIGYADSSK / VGRCGGYLDY showed 150 nM (3 of 3 replicates). Variant GFTFDDYAMH / GISWNSGSIGYITSNK / VGRGGGYFDY gave nd (0 of 3 replicates). Variant GFTFDDYNMH / GISWNSGYIGYADSYK / VGRGGGYFDY showed 96 µM (3 of 3 replicates).

With GFTFDDYAMH / GISYNSGSIGYADSMK / VGRGGGYFDY the result was 5.5 nM (3 of 3 replicates). For GFTFDDYAMH / GISWNSGSIGYQDSMK / VGRGGGYFDY, the assay gave nd (0 of 3 replicates). Variant GFTFDDYAMH / CISWNSGSIGYADSLK / VGRGGGYFDY showed nd (0 of 3 replicates). For GFTFDDYAMS / GISWNSGSIGYADSRK / VGHGGGYFDY, the assay gave 530 µM (2 of 3 replicates). Variant GFTFDDYAMH / IISWNSGSIGYADPIK / VGRGGGYFDY gave nd (0 of 3 replicates).

With GFTFDDYAME / GISWNSTSIGYADSCK / VGRGGGYFDY the result was 4.0 µM (1 of 3 replicates). Variant GFTFDDYAMH / GISWNSGSIGYADSSK / VGRNGGFFDY gave 160 nM (3 of 3 replicates). With GFTFDDYAMH / GISWNMGSIGYADSWK / VGRNGGYFDY the result was 360 µM (2 of 3 replicates). Variant GFTFDDYAAH / NISWNSGSIGYADSMK / VGRGGGYFDY gave 56 µM (2 of 3 replicates). With MFTFDDYAMH / GISWNSGSIGYADSRK / VGRGDGYFDY the result was nd (0 of 3 replicates).

Variant GFTFDDYAMH / GISWNSGSIGYAYYTK / VGRGGGYFDY gave nd (0 of 3 replicates). With GFTWDDKAMH / GISWNSGSIGYADSDK / VGRGGGYFDY the result was 25 µM (3 of 3 replicates). Variant GFTFNDYAMH / GISWNSGCIGYADSAK / VGRGGGYFDY showed 4.6 µM (3 of 3 replicates). With GFTFDDYAMH / GRGWNSGSIGYADSGK / VGRGGGYFDY the result was nd (0 of 3 replicates). Variant GFTFDDYAMH / GILWPSGSIGYADSGK / VGRGGGYFDY showed nd (0 of 3 replicates).

With GFTFDDYAMH / GISWNHGSIGYADKGK / VGRGGGYFDY the result was nd (0 of 3 replicates). Variant GFTFDRYAMH / GISWNSGSIAYADSAK / VGRGGGYFDY showed 20 µM (2 of 3 replicates). With GFTFDDYAMH / GISWNSGSIGYADFCQ / VGRGGGYFDY the result was 11 nM (3 of 3 replicates). Variant GFTFDDSAMH / GISWNSGSIGMADSEK / VGRGGGYFDY gave 43 µM (1 of 3 replicates). Variant GFTFDDYAMH / GIPWNSGSIGYADSSK / VGRGGGYFDY showed 940 nM (1 of 3 replicates).

Variant GFTFQDYAMH / GISWNSGSIGYAESFK / VGRGGGYFDY showed 5.3 nM (3 of 3 replicates). For GFTFDDYARH / GISWNSGSIGYADSSK / RGRGGGYFDY, the assay gave nd (0 of 3 replicates). For GFTFDDYAMH / GISWNSGCIGYADSFK / VGRGGGYFDE, the assay gave 260 nM (3 of 3 replicates). With GWTFDDYAMH / GISWNSGWIGYADSHK / VGRGGGYFDY the result was 210 µM (1 of 3 replicates). With GFTFDWYAMH / GISWNSGSIGYADSYK / RGRGGGYFDY the result was nd (0 of 3 replicates).

For GFTFDDYAWH / GISWNSGSIGYADSAK / VGRGGGYFDY, the assay gave 42 µM (1 of 3 replicates). Variant GFTNDDYAMH / GISWLSGSIGYADSRK / VGRGGGYFDY showed nd (0 of 3 replicates). Variant GFTFDDYGMH / GISWNSGSLGYADSTK / VGRGGGYFDY gave 120 nM (3 of 3 replicates). Variant GFTFDDYAMH / GISWNSGSIGYADSTK / DGRGGGYLDY gave 8.1 µM (1 of 3 replicates). Variant GFTFDDYAMH / GISWNSGSIGYADSYK / VGRWGGYFDY showed nd (0 of 3 replicates).

Variant GFHFFDYAMH / GISWNSGSIGYADSHK / VGRGGGYFDY showed nd (0 of 3 replicates). Variant GHTFDDYAMH / GISWNSGSIGYADSRK / VGRSGGYFDY showed 12 µM (1 of 3 replicates).

Picked from the list: the 5 lowest averages where every replicate gave a value.

| CDR-H1 | CDR-H2 | CDR-H3 | apparent Kd | detected |
|---|---|---|---|---|
| GFTFQDYAMH | GISWNSGSIGYAESFK | VGRGGGYFDY | 5.3 nM | 3 of 3 |
| GFTFDDYAMH | GISYNSGSIGYADSMK | VGRGGGYFDY | 5.5 nM | 3 of 3 |
| GFTFDDYAMH | GISWNSGSIGYADFCQ | VGRGGGYFDY | 11 nM | 3 of 3 |
| GFTFDDYGMH | GISWNSGSLGYADSTK | VGRGGGYFDY | 120 nM | 3 of 3 |
| GFTFDDYAMH | GISWNSGSIGYADSSK | VGRCGGYLDY | 150 nM | 3 of 3 |

Background: pairings of library AAYL51 with three empty control strains gave a value in 21% of cases (median 34 µM, 5th percentile 1.8 µM). Values in that range, when seen in few replicates, are hard to tell from nonspecific mating.